Measurements as given in patent US10117950B2, “Compounds and compositions for the treatment of ocular disorders” (Graybug Vision, Inc., priority 2015, dated 2018).

Assay: Determination of drug solubility

Solubility DCM (DCM): <5000 µg/mL
Solubility DMSO (DMSO): <2000 µg/mL
Solubility Water (water / aqueous solvent): >50000 µg/mL
Structure (SMILES): CCN[C@H]1C[C@H](C)S(=O)(=O)c2sc(S(=O)(=O)NC(=O)[C@H](C)OC(=O)[C@H](C)OC(=O)[C@H](C)O)cc21
